This test has as its target Human HDAC1 (Homo sapiens (Human), UniProt Q13547). Nature of the test: HDAC enzymatic assay, HDAC1. The format is biochemical. Particulars: 10-dose IC50 mode with a 3-fold serial dilution; read-out: HDAC subtypes IC50 HDAC1. The protocol: The IC50 values for aforementioned compounds against HDACs were determined. HDAC 1 to 11 can be assayed by using acetylated AMC-labeled peptide substrate.
Human HDAC1 GenBank Accession No. NM_004964): Full length with C-terminal GST tag, MW=79.9 kDa, Human HDAC2 (GenBank Accession No. Q92769): Full length with C-terminal His tag, MW=60 kDa. Human HDAC3/NcoR2 (GenBank Accession No. […] for HDAC3, GenBank Accession No. NM_006312 for NcoR2): Complex of human HDAC3, full length with C-terminal His tag, MW=49.7 kDa, and human NCOR2, N-terminal GST tag, MW=39 kDa. Human HDAC6 (GenBank Accession No. BC069243): Full length with N-terminal GST tag, MW=159 kDa. Human HDAC8 (GenBank Accession No. NM018486): Full length, MW=42 kDa, expressed in an E. coli expression system.
Human HDAC1, Human HDAC2, Human HDAC3/NcoR2, Human HDAC6, Human HDAC10, and Human HDAC11 were all expressed by baculovirus expression system in Sf9 cells.
50 μM HDAC substrate. 1% DMSO final. Incubation for 2 hours at 30° C.

Amino acid sequences for entries named in this document (tags omitted).
UniProt Q13547, whole entry: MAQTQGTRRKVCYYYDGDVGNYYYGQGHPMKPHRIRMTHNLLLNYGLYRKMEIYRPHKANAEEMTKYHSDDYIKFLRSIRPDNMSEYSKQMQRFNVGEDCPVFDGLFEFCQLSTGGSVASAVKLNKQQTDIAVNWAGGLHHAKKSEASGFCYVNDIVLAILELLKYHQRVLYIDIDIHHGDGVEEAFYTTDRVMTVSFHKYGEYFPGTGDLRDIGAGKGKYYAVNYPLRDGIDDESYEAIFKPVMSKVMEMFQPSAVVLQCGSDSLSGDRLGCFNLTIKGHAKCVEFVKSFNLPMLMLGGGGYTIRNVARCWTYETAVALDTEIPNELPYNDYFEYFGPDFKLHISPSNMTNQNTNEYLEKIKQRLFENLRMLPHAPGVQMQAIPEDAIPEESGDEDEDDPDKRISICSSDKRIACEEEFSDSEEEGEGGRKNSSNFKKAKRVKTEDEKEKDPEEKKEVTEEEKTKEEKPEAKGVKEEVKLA

This is an account of results in patent publication US11535598B2, “Histone deacetylases (HDACs) inhibitors” (ANNJI PHARMACEUTICAL CO., LTD., priority 2017, dated 2022).

Usually IC50 stands for the concentration that inhibits the measured activity by half. With `COc1ccccc1CCn1c(=O)c2ccccc2n(Cc2ccc(C(=O)NO)cc2)c1=O` [Compound 15, N-hydroxy-4-((3-(2-methoxyphenethyl)-2,4-dioxo-3,4-dihydroquinazolin-1(2H)-yl)methyl)benzamide], the IC50 is 10.4 µM.
